# Antibody variant affinities, Ab-14 heavy chain, assay B

Target peptide (SARS-CoV-2 spike, HR2 region): PDVDLGDISGINAS

Parent scFv Ab-14: VH joined to VL by a (GGGGS)3 linker. Changes lie in the heavy chain CDRs alone.
VH: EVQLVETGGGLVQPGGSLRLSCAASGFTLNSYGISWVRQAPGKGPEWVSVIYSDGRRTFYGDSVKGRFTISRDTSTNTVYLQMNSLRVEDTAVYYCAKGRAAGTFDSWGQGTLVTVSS
VL: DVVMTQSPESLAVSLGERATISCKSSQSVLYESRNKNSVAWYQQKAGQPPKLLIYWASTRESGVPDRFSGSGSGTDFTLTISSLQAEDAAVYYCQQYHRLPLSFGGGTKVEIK

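Designed CDR sequences, proposed from the first random library and measured here. Their group label is 14H_GP_HC (GP: Gaussian process model; HC: hill climbing; a sequence that several methods proposed may carry one label only). AlphaSeq pools MATa yeast showing the antibodies with MATalpha yeast showing the peptide. After mating in shaken culture at 30 °C for 16 h, diploids were selected and their barcode pairs sequenced. Read counts were normalised to the haploid input and turned into Kd by a linear fit to BCL2-family pairs of known affinity, for each replicate. The assay was run in six technical replicates.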

The parent's heavy chain CDRs are GFTLNSYGIS, VIYSDGRRTFYGDSVK, GRAAGTFDS; each variant's own CDRs replace them letter for letter.
Values are log10 of the apparent Kd in nM; lower means stronger binding.
An entry "n.d." has no value in the source: the pair was not observed among the diploids in that replicate. This suggests poor binding but is not conclusive.
The range of this assay differs from that of the first round, and the authors advise against merging the two.
Nonspecific signal, from three strains lacking the peptide, appeared in 1% of pairings of all heavy chain designs, centred on 2.08 (5% of these signals below 0.84); values are not corrected for it. Also given: how often the same scFv was detected with the empty control strains, with their mean in brackets.
The authors' rule: three or more of the six replicates give a measured affinity, fewer mean a poor binder.
Of ten entries with the parent sequence, four were seen in most replicates (averages 0.34 to 2.37), three in one and three in none, so single entries are noisy.

CDR-H1	CDR-H2	CDR-H3	log10 Kd (nM) by replicate	control signals
GFTLNDYGIS	VIYSDGRRTHYADSVK	GRAAGTFDS	1.13 / 1.56 / 0.33 / 0.33 / 0.56 / 0.86	0 of 18
GFTLNEYGIS	VIYSDGRRTFYTDDVK	GEAAGTFDS	0.13 / -0.48 / -0.11 / 0.40 / -0.19 / -0.09	0 of 18
GFTLESYGIS	VIYSDGRRTFYHDSVK	GQGAGTFDS	n.d. / n.d. / n.d. / n.d. / n.d. / n.d.	1 of 18 (2.17)
GFQLNEYGIS	VIYSDGRRTFYKDSVK	GRAAGTFDS	0.68 / 0.31 / 0.42 / 0.33 / 0.40 / 0.33	0 of 18
GFELNRYGIS	VIYSDGRRTAYQDSVK	GRAAGTFDS	1.15 / 1.09 / 0.12 / 0.16 / 0.40 / 0.93	1 of 18 (2.51)
GFQLNSYGIS	VIYSDGRRTFYGDSVK	GAAAGTFDS	1.80 / 1.44 / n.d. / 3.15 / n.d. / 2.38	0 of 18
GFTLYEYGIS	VIYSDGRRTFYGDSVK	GRAAGTFDT	1.46 / 1.16 / 0.99 / 1.76 / 1.48 / 1.10	1 of 18 (2.43)
GFSLNEYGIS	VIYSDGRRTFYHDSVK	GRAAGFFDS	0.58 / 0.78 / 0.66 / 1.06 / 1.43 / 0.82	0 of 18
GFDLNSYGIS	VIYSDGRRTFYGDSVK	GRLAGTFES	0.79 / 0.31 / 0.41 / 0.16 / 0.70 / 0.70	0 of 18
GFSLNEYGIS	VIYSDGRRTFYHDSVK	GPAAGTFDR	1.81 / 2.00 / 1.03 / 0.92 / 2.03 / 1.45	0 of 18
GFTLNEYGIS	VIYSDGRRTFYSDSVK	GRAAGTLDS	0.24 / 0.49 / 0.42 / 0.64 / 0.55 / 0.70	0 of 18
GFSLNSYGIS	VIYSDGRRTFYDDSVK	GQVAGKFDS	0.07 / 0.73 / 1.41 / 1.32 / 0.56 / 0.31	0 of 18
GFTLNSYGIS	VIYSDGRRTFYTDSVK	GDEAGTFDS	0.31 / 0.25 / 0.17 / 0.04 / 0.19 / 0.01	0 of 18
GFTLNEYGIS	VIYSDGRRTFYTDSVK	GVEAGTFDS	-0.10 / -0.12 / -0.11 / -0.15 / -0.15 / 0.27	0 of 18
GFDLNSYGIS	VIYSDGRRTFYSDSVK	GTAGGTFDS	n.d. / 1.70 / 0.58 / 1.06 / 0.73 / 1.58	1 of 18 (1.13)
GFTLDSYGIS	VIYADGRRTFYGDSVK	GRAAGTFDV	-0.14 / -0.28 / -0.41 / -0.28 / 0.06 / -0.08	0 of 18
GFTLNSYGIS	VIYSDGKRTFYSDSVK	GRAMGTFDT	n.d. / n.d. / n.d. / n.d. / n.d. / n.d.	0 of 18
GFTLKSYGIS	VIYSDGRRTFYGDSVK	GRAAVTFDQ	n.d. / n.d. / n.d. / n.d. / n.d. / n.d.	0 of 18
GFTLNEYGIS	VIYSDGIRTFYGDSVK	GRMAGTFDS	0.69 / 0.22 / 0.56 / 1.21 / 0.40 / 0.89	0 of 18
GFTLNEYGIS	VIYSDGRRTFYSDSVK	GMAGGTFDS	n.d. / 1.94 / 0.01 / -0.77 / 0.90 / n.d.	1 of 18 (0.93)
GFTLNEYGIS	VIYSDGRRTFYTDSVK	GRSAGTFTS	n.d. / n.d. / n.d. / n.d. / n.d. / 2.13	0 of 18
GFTLNEYGIS	VIYSDGRRTMYADSVK	GRCAGTFDS	n.d. / n.d. / n.d. / 1.08 / -0.06 / n.d.	0 of 18
GFSLNSYGIS	VIYADGRRTFYGDNVK	GRAAGTFKS	n.d. / n.d. / n.d. / 1.86 / 3.36 / n.d.	0 of 18
EFTLNSYGIS	VIYSDGRRTFYADSVK	GRIAGTFDS	0.67 / 0.39 / 0.29 / 0.39 / 0.58 / 0.49	0 of 18
GFTLNEYGIS	VIYSDGRRTFYGDSVK	GRASVTFDI	n.d. / n.d. / n.d. / n.d. / n.d. / n.d.	0 of 18
GMTLNSYGIS	VIYSDGRRTFYQDSVK	GQLAGTFDS	n.d. / n.d. / 1.05 / n.d. / n.d. / n.d.	0 of 18
GETLNDYGIS	VIYSDGRRTFYIDSVK	GRAAGTFDS	n.d. / 2.03 / 0.70 / 1.54 / 1.30 / n.d.	0 of 18
GFTLDSYGIS	VIYADGRRTFYGDSVK	GRAAGTFCS	0.69 / 0.09 / 0.15 / 0.93 / 0.41 / 0.46	0 of 18
KFELNEYGIS	VIYSDGRRTFYTDSVK	GRCAGTFDS	n.d. / n.d. / 2.08 / n.d. / n.d. / n.d.	0 of 18
GFTLNDYGIS	VIYSDGRRTFYDDSVK	GRTAGTFIS	n.d. / n.d. / n.d. / n.d. / n.d. / n.d.	0 of 18
GFELNQYGIS	VIYSDGRRTAYQDSVK	GRAAGTFDS	-0.11 / -0.35 / -0.41 / -0.62 / -0.46 / -0.54	1 of 18 (3.11)
GFQLNEYGIS	VIYSDGIRTFYGDSVK	GRAAGTFDS	0.59 / 0.62 / 0.33 / 0.28 / -0.05 / 0.46	2 of 18 (1.94)
GFTLNSYGIS	VIYSDGRRTFYKDSVK	GQLAGTFDT	1.57 / 1.27 / 0.24 / 0.48 / 0.30 / n.d.	0 of 18
GFTLNEYGIS	VIYSDGRRTFYGDSVK	GRFAGTFDR	0.73 / 1.18 / 0.79 / 0.78 / 0.24 / 0.89	1 of 18 (2.44)
GFTLNEYGIS	VIYSDGRRTFYQDSVK	GRAAVTFDQ	n.d. / n.d. / n.d. / n.d. / n.d. / n.d.	0 of 18
GFTLNEYGIS	VIYSDGRRTFYMDSVK	GRMAGTFDS	0.84 / 1.95 / 2.17 / 0.54 / 0.52 / 3.54	0 of 18
GFDLNSYGIS	VIYSDGRRTFYGDSVK	GRAAGMFRS	n.d. / n.d. / n.d. / n.d. / n.d. / n.d.	0 of 18
GFTLNEYGIS	VIYSDGRRTFYTDSVK	GKQAGTFDS	0.35 / 0.65 / -0.15 / 0.29 / 0.23 / 0.28	1 of 18 (1.16)
GFTLNSYGIS	VIYSDGMRTFYSDSVK	GREAGTFFS	n.d. / n.d. / n.d. / n.d. / n.d. / n.d.	0 of 18
GFTLNDYGIS	VIYSDGRRTEYIDSVK	GRAAGTFDS	n.d. / 2.21 / 2.34 / 2.13 / n.d. / 1.25	1 of 18 (1.57)
GFTLNEYGIS	VIYSDGRRTFYGDSVK	GVFAGTFDS	0.92 / 0.58 / 0.45 / 0.87 / 0.69 / 1.64	0 of 18
GFTLNSYGIS	VIYSDGRRTFYTDSVK	GLLAGTFDS	0.35 / 1.07 / 1.32 / 0.59 / 0.75 / 0.85	0 of 18

Top 7 of the variants detected in all replicates, tightest first:

CDR-H1	CDR-H2	CDR-H3	log10 Kd (nM) by replicate	control signals
GFELNQYGIS	VIYSDGRRTAYQDSVK	GRAAGTFDS	-0.11 / -0.35 / -0.41 / -0.62 / -0.46 / -0.54	1 of 18 (3.11)
GFTLDSYGIS	VIYADGRRTFYGDSVK	GRAAGTFDV	-0.14 / -0.28 / -0.41 / -0.28 / 0.06 / -0.08	0 of 18
GFTLNEYGIS	VIYSDGRRTFYTDSVK	GVEAGTFDS	-0.10 / -0.12 / -0.11 / -0.15 / -0.15 / 0.27	0 of 18
GFTLNEYGIS	VIYSDGRRTFYTDDVK	GEAAGTFDS	0.13 / -0.48 / -0.11 / 0.40 / -0.19 / -0.09	0 of 18
GFTLNSYGIS	VIYSDGRRTFYTDSVK	GDEAGTFDS	0.31 / 0.25 / 0.17 / 0.04 / 0.19 / 0.01	0 of 18
GFTLNEYGIS	VIYSDGRRTFYTDSVK	GKQAGTFDS	0.35 / 0.65 / -0.15 / 0.29 / 0.23 / 0.28	1 of 18 (1.16)
GFQLNEYGIS	VIYSDGIRTFYGDSVK	GRAAGTFDS	0.59 / 0.62 / 0.33 / 0.28 / -0.05 / 0.46	2 of 18 (1.94)

The measurements come from Li et al. 2023 (doi:10.1038/s41467-023-39022-2) through the FLAb antibody collection.